# Source: US20240052300A1, “DIFFUSION GRADIENT ASSAY FOR ANTI-CD3-CONTAINING MOLECULES” (priority 2020, published 2024)
# System: CHO cells expressing a BiTE®-Fc fusion molecule
# Details: 0 ug/mL to 1 μg/mL, 24 hours incubation; FIG. 1D
substance,measurement,value
Pyroglutamate-DGNEEMGGC-AF594 [CD3-AF594 conjugate],cell viability,no observed cell viability defects
